Patent US5962493A, “2-mercaptobenzimidazole derivatives and antihyperlipemic agent or antiarteriosclerotic agent containing the same” (priority 1997, dated 1999)

Test system: mouse peritoneal macrophage
Conditions: Table 2; dose 5 μM; microscopic observation

CN(C)C(=O)n1c(SCCCCCSc2nc3ccccc3n2C(=O)N(C)C)nc2ccccc21
Cytotoxicity: none
